Assay results published in patent US8697715B2, “Serine/threonine kinase inhibitors” (Array BioPharma Inc., priority 2012, dated 2014).

Test system: PMA-stimulated P90RSK(Ser380) phosphorylation in HepG2 cells
Assay: Cellular P90RSK(Ser380) Phosphorylation Assay
Format: cell-based
Settings: Homo sapiens, 1.5 hours compound incubation, PMA 100 ng/mL 30 minutes, normalized to GAPDH, single assay or mean of multiple assays, read-out: Biological Example 2 IC50
Procedure: Inhibition of PMA-stimulated P90RSK(Ser380) phosphorylation was determined by the following in vitro cellular mechanistic assay, which comprises incubating cells with a compound for 1.5 hours and quantifying fluorescent pP90RSK(Ser380) signal on fixed cells and normalizing to GAPDH signal.
HepG2 cells were obtained from ATCC and grown in DMEM supplemented with 10% fetal bovine serum. Cells were plated in 96-well plates at 35,000 cells/well and allowed to attach overnight at 37° C./5% CO2. Diluted compounds were then added at a final concentration of 0.5% DMSO. After 1.5 hours compound incubation, cells were stimulated with the addition of phorbol 12-myristate 13-acetate (“PMA”) at a final concentration of 100 ng/mL; the PMA stimulation was a 30-minute incubation at 37° C./5% CO2. After the 30-minute PMA stimulation, cells were washed with phosphate buffered saline (“PBS”) and fixed in 3.7% formaldehyde in PBS at room temperature for 15-20 minutes. This was followed by another wash in PBS and then permeabilization in 100% MeOH at room temperature for 10-15 minutes. Following the permeabilization incubation, cells were washed in PBS/0.05% Tween-20, followed by a block in Odyssey blocking buffer (LI-COR Biosciences) for at least 1 hour. […] Cells were then washed and analyzed for fluorescence at both wavelengths using the Odyssey Infrared Imaging System (LI-COR Biosciences). […]

In the case of `COC(=O)c1cc(Nc2nccc(-c3ccn([C@H](CO)c4ccc(Cl)c(F)c4)c(=O)c3)n2)ccn1` [Example 270, (S)-methyl 4-((4-(1-(1-(4-chloro-3-fluorophenyl)-2-hydroxyethyl)-2-oxo-1,2-dihydropyridin-4-yl)pyrimidin-2-yl)amino)picolinate], the IC50 is reported as 22 nM.
